Results taken from ChEMBL document CHEMBL1138929, “Development of peptidic dopamine transporter inhibitors via aromatic modification-mediated conformational restriction” (J Med Chem, 2006).

Chains of the proteins cited; added tags and fusions are not shown.
UniProt P31652, whole entry: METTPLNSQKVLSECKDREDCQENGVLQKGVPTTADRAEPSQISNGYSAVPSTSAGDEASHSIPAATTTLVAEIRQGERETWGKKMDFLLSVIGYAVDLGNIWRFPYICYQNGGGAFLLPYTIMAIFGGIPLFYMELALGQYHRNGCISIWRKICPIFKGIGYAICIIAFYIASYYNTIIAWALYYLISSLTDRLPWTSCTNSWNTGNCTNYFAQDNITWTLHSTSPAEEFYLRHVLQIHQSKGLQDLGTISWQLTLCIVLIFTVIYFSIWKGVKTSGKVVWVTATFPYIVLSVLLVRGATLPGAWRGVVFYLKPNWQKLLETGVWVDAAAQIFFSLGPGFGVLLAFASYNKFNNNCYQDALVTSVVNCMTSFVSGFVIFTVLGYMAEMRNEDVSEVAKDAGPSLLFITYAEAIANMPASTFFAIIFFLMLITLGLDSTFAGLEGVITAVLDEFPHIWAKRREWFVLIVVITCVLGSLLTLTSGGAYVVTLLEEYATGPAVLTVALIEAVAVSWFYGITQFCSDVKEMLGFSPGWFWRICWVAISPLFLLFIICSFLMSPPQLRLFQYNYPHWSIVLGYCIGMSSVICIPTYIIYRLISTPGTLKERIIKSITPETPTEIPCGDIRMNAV

Target: Sodium-dependent serotonin transporter (Rattus norvegicus, UniProt P31652)
Assay: Inhibition of rat SERT-mediated serotonin uptake in CHO cells
Format: cell-based

**Q.** COC(=O)[C@H]1[C@@H](OC(=O)c2ccccc2)C[C@@H]2CC[C@H]1N2C [COCAINE] was tested. Which IC50 did it give?
**A.** 400 nM
